The numbers were not newly measured in patent US20140141090A1, “Pharmaceutical Composition Comprising Opioid Agonist And Sequestered Antagonist” (priority 2011, published 2014), which cites them from elsewhere.

Molecules are shown by their SMILES.

The conditions of the data set: in comparison to a 15 mg dose of hydrocodone.

On to `CN1CC[C@]23c4c5ccc(O)c4O[C@H]2C(=O)CC[C@H]3[C@H]1C5` [hydromorphone], for which the Equianalgesic dose is given as 3.375 mg.
